By UniProt entry, the sequences of proteins in these tests, tags left out.
UniProt P08183, whole entry: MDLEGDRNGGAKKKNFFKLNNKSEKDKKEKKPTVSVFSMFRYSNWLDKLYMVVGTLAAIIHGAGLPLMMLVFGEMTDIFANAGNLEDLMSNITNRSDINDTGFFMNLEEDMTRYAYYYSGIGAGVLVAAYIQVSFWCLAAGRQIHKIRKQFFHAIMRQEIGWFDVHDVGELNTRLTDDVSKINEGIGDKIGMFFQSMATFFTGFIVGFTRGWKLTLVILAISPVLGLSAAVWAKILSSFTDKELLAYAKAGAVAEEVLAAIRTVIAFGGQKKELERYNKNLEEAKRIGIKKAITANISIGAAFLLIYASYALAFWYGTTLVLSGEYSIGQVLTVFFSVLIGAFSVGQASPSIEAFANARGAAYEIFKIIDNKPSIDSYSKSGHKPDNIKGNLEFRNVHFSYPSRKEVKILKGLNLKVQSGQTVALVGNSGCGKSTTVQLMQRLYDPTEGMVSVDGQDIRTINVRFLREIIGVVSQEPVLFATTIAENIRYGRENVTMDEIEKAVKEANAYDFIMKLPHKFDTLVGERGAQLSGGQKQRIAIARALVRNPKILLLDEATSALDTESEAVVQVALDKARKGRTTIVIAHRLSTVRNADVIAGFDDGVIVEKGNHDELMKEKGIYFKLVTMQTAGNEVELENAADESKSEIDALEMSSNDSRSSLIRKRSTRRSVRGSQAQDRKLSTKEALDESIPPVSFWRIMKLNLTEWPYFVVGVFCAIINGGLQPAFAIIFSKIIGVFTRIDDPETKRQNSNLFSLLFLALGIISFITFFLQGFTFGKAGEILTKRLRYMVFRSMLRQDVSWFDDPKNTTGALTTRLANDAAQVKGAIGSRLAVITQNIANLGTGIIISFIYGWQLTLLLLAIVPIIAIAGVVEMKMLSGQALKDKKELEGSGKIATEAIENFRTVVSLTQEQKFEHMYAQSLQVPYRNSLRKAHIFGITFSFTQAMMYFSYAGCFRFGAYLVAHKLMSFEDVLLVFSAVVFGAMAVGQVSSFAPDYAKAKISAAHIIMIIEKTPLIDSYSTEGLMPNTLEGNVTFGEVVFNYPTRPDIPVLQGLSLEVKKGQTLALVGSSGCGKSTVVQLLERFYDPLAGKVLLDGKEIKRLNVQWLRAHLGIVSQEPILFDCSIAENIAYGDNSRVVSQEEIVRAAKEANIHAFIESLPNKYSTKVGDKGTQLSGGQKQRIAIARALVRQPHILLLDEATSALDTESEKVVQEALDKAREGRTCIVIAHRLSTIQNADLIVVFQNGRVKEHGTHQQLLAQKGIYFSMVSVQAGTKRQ

According to patent US20070111328A1, “Scintillation proximity assay for the identification of P-glycoprotein modulators” (priority 2005, published 2007):

Target: P-glycoprotein (P-gp) (Homo sapiens, UniProt P08183)
Assay: Scintillation proximity assay (SPA): competition with [3H]vinblastine binding to P-gp in KB-V1 cell membranes
Details: test compound 10 μM final concentration; FIG. 8; mean of triplicates

| Compound | effect of test compound on P-gp specific binding signal |
| --- | --- |
| C[C@H]1O[C@@H](O[C@H]2[C@@H](O)C[C@H](O[C@H]3[C@@H](O)C[C@H](O[C@H]4CC[C@@]5(C)[C@H](CC[C@@H]6[C@@H]5C[C@@H](O)[C@]5(C)[C@@H](C7=CC(=O)OC7)CC[C@]65O)C4)O[C@@H]3C)O[C@@H]2C)C[C@H](O)[C@@H]1O [digoxin] | do not appear to be able to alter the P-gp signal |
| LY335979 | strongly inhibited |
